Tested on: motoneurons (trophic activity produced by spinal astrocytes)
Type: cell-based, Wistar rats
Details: each product 0.1 μM; astrocyte monolayers exposed 24 hours, conditioned medium taken up 24 hours later; percentage of the number of motoneurons in cultures maintained with BDNF; vehicle alone 44 ± 1.41

Nc1nc2ccc(OC(F)(F)F)cc2s1 [riluzole]
Motoneuronal survival in %: 68.0 ± 3%
